Structures are written as SMILES. The entries are a selection whose mix differs from that of the whole data set. Activity calls are given as the source filed them.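 How the source made its calls: active means inhibition above the mean inhibition of all tested compounds plus 3 SD, set per campaign (cut at about 52% in these data); inactive means the rest.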

Amino acid sequences for entries named in this document (tags omitted). A change or cut given only in a name is not applied to a line headed by its entry.
UniProt Q15596: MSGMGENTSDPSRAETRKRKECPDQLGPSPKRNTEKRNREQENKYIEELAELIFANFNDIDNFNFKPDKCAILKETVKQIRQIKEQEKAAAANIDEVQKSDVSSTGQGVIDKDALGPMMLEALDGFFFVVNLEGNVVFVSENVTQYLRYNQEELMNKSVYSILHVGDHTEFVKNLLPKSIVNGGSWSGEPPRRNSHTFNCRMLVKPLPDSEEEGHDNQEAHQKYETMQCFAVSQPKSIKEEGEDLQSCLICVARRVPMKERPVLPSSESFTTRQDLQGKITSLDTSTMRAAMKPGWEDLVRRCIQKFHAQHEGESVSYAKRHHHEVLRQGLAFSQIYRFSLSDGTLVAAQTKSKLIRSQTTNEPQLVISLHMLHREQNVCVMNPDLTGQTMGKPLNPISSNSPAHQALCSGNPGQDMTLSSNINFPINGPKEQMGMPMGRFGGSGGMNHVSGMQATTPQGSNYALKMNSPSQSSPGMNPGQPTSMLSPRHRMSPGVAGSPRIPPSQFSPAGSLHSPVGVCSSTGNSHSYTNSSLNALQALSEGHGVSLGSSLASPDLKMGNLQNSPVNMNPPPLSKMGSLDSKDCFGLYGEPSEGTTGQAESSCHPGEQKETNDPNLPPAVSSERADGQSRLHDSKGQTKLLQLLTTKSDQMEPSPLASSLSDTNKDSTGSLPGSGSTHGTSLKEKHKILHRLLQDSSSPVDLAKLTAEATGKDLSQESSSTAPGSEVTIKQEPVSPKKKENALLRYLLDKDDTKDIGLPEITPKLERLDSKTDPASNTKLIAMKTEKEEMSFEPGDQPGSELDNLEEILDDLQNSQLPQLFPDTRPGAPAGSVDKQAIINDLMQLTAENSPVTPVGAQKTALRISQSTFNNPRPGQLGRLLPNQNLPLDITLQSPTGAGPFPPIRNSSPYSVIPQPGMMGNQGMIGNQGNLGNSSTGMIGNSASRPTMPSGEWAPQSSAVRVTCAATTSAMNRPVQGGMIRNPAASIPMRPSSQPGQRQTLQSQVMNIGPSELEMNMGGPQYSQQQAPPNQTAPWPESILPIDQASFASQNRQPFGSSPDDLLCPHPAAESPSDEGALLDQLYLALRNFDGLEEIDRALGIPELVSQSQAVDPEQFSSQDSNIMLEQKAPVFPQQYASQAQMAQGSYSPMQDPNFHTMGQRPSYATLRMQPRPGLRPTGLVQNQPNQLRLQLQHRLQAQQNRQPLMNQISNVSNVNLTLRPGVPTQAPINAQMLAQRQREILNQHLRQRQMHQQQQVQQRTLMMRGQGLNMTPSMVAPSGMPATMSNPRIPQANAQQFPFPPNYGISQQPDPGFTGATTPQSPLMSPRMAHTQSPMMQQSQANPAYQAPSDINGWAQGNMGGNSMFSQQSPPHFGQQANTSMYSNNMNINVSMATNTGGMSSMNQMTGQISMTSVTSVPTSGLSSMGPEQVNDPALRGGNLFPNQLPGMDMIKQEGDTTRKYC

The assay concerns the target Nuclear receptor coactivator 2 (Homo sapiens) (UniProt Q15596). Put plainly: inhibition of GAL4-SRC2 driven luciferase reporter, primary screen, SRC2 inhibitor project, cell-based, luminescence (AID 651957).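 Further: 0% = DMSO treated cells and 100% = cells given Gossypol at 36 µM.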 Conditions: HEK293 GAL4-SRC2 luciferase reporter, at 9 µM, active compounds read high.
For `NC(=O)c1cc([N+](=O)[O-])cc([N+](=O)[O-])c1N`, the inhibition is inactive: -18.8%.

As to `Cc1ccc(N/C(=N/P(=O)(N2CCOCC2)N2CCOCC2)N2CCOCC2)cc1`, the inhibition is inactive: -1.29%. With `CN(C(=O)Cc1ccc(Cl)c(Cl)c1)[C@H]1CCCC[C@H]1N1CCCC1`, the inhibition was inactive: -5.15%. The value for `Cc1ccc(OP(=O)(Nc2nccs2)Oc2ccc(C)cc2)cc1` was inactive: 5.1%.

Consider `COc1ccccc1OP(=O)(Nc1ccc(C)cn1)Oc1ccccc1OC`, for which the inhibition was inactive: -16.4%. Then `Clc1ccc(Cl)c(NC2=NCC(CBr)S2)c1` (centres undefined), with inactive: 1.04%; and `CN1CCCC(OC(=O)C(c2ccccc2)c2ccccc2)C1` (centres undefined), with inactive: -16.8%. Then `CC(C)CC(=O)NC(Sc1ccc(Cl)cc1)C(Cl)(Cl)Cl` (centres undefined), with inactive: 6.25%. Then `Nc1cc(N)c2nonc2c1[N+](=O)[O-]`, with inactive: -49.7%. For `O=C(NC(Sc1ccncn1)C(Cl)(Cl)Cl)c1ccccc1` (centres undefined), the inhibition was inactive: 1.19%. Then `Oc1ccccc1CNc1ccccn1`, with inactive: 12.7%; and `COc1ccc(C2=NCC(CBr)S2)cc1` (centres undefined), with inactive: -3.62%. Then `O=[N+]([O-])c1cccc2n[nH]nc12`, with inactive: -19.4%; and `CC(=O)N1C2C3N(C(C)=O)C1C1N(C(C)=O)C(C(N1C(C)=O)N3C(C)=O)N2C(C)=O`, with inactive: 0.11%; and `CCc1nc2c(n1)c1c(non1O)c1c2no[n+]1[O-]`, with inactive: -33.9%.

In the case of `O=[N+]([O-])c1cc([N+](=O)[O-])c(CCNc2ccccc2)c([N+](=O)[O-])c1`, the inhibition was inactive: 31%. With `Cc1ccc(NP(=O)(Oc2ccccc2)Oc2ccccc2)nc1`, the inhibition was inactive: -8.91%.

Consider `C[N+]1=C2C=CC=CC=C2SC12C([N+](=O)[O-])=CC([N+](=O)[O-])=C[C-]2[N+](=O)[O-]` (centres undefined), for which the inhibition is active: 91.7%. Then `Nc1ccc([As](=O)(O)c2ccc(N)cc2)cc1`, with inactive: 26.9%; and `CCN(/C(=N/P(=O)(N1CCOCC1)N1CCOCC1)N1CCOCC1)c1ccc(OC)cc1`, with inactive: -10.1%; and `CN(C)C(=O)OCCc1n(C)cc[n+]1C`, with inactive: -23.4%. Then `CC(C)=N/N=C(\N)N[N+](=O)[O-]`, with inactive: -21.6%. The value for `CC(C)c1nc(Nc2ccccc2)n(P(=O)(N(C)C)N(C)C)n1` was inactive: -16.3%; that for `c1cc(-c2nn[nH]n2)ccc1-c1nn[nH]n1` was inactive: -6.79%; that for `CC1CCN(C(=O)Oc2c(Cl)cc(Cl)c3cccnc23)CC1` was inactive: -27.6%. On to `O=P1(N(CCCl)CCCl)OCCCS1` (centres undefined), for which the inhibition is inactive: 1.3%. The value for `O=C(Nc1cc([As](=O)(O)O)ccc1O)c1ccccc1` was inactive: 7.25%; that for `CC(C)(C)C(=O)NC(Sc1ccncn1)C(Cl)(Cl)Cl` (centres undefined) was inactive: 9.77%; that for `O=[N+]([O-])c1ncn(CCn2ncnc2[N+](=O)[O-])n1` was inactive: -9.96%. Then `O=[N+]([O-])c1cccc(NC2=NCC(CBr)S2)c1` (centres undefined), with inactive: -8.33%.

Consider `COC(=O)C1(C)COP(=O)(Nc2ccccc2)OC1` (centres undefined), for which the inhibition was inactive: 6.13%.

`O=C(O)CNc1ccc([As](=O)(O)O)cc1`: the inhibition was inactive: 1.04%. Then `Nc1ccc(CCCCOc2ccccc2)cc1`, with inactive: -8.62%; and `COc1ccc(N)c([N+](=O)[O-])c1[N+](=O)[O-]`, with inactive: -24.5%; and `O=P(Nc1ccccn1)(c1ccc(Br)cc1)c1ccc(Br)cc1`, with inactive: -22.3%. Then `CN(C)C1(CNC(=O)c2ccc(Cl)c(S(N)(=O)=O)c2)CCCCC1`, with inactive: 16.7%; and `C[C@H]1OP(=O)(Oc2ccccc2)[C@H](O)[C@H](O)[C@H]1N=[N+]=[N-]` (some centres undefined), with inactive: 1.03%; and `O=P(Nc1nc2ccccc2s1)(c1ccccc1)c1ccccc1`, with inactive: 5.74%. On to `O=[N+]([O-])c1ncn(CCn2cnc([N+](=O)[O-])n2)n1`, for which the inhibition is inactive: 15.6%. Then `CC(=O)NC(SC(=S)N(C)C)C(Cl)(Cl)Cl` (centres undefined), with inactive: -16.3%. On to `O=[As](O)(c1ccccc1)c1ccc(O)cc1`, for which the inhibition is inactive: -13.6%. The value for `Nc1ccc([As](=O)(O)c2ccc([N+](=O)[O-])cc2)cc1` was inactive: -5.01%. The value for `C(Cc1nn[nH]n1)Cc1nn[nH]n1` was inactive: -12.2%; that for `C/C(N)=N\P(=O)(OCc1ccccc1)OCc1ccccc1` was inactive: 12.6%; that for `O=C(OC1CN2CCC1CC2)c1cccc(Cl)c1` (centres undefined) was inactive: 15%. Then `CC(C)C(=O)NC(Sc1ccccc1)C(Cl)(Cl)Cl` (centres undefined), with inactive: -6.32%; and `O=P(Nc1nccs1)(c1ccccc1)c1ccccc1`, with inactive: 6.92%.

For the molecule `c1nnnn1CCn1cnnn1`, the inhibition was inactive: -3.72%. As to `CCOc1ccc(C2=NCC(CBr)S2)cc1` (centres undefined), the inhibition is inactive: -22%.

On to `O=P1(Nc2nc3ccc(Cl)cc3s2)COc2ccccc2O1` (centres undefined), for which the inhibition is inactive: -24.8%. `CCc1cc(O)c([N+](=O)[O-])c(C)c1[N+](=O)[O-]`: the inhibition was inactive: -0.58%. The value for `CC(C)(C)C(=O)NC(Sc1ccccc1)C(Cl)(Cl)Cl` (centres undefined) was inactive: -23.8%; that for `COC(=O)C1(C)COP(=O)(NCc2ccccc2)OC1` (centres undefined) was inactive: -33.6%; that for `N#C/C(=C\c1ccc(N(CCBr)CCBr)cc1)C(N)=O` was inactive: -22.6%. For `CC(=O)c1ccc(N2CC2c2ccncc2)cc1` (centres undefined), the inhibition was inactive: -2.44%. As for `C[C@@H]1C=CCP(=O)(Oc2ccccc2)O1` (some centres undefined), the inhibition is inactive: -10.1%.

Turning to `C[C@H]1OP(=O)(Oc2ccccc2)C[C@@H]2O[C@@H]21` (some centres undefined), the inhibition was inactive: 2.33%. Then `Cc1ccccc1CN(C)C(=O)COC(=O)C(O)(c1ccccc1)c1ccccc1`, with inactive: -6.48%.

For `CC(=O)Nc1ccc(Oc2c([N+](=O)[O-])cc([N+](=O)[O-])cc2[N+](=O)[O-])cc1`, the inhibition was inactive: -19.5%. Then `CC(=O)Nc1ccc([As](=O)(O)O)c(O)c1`, with inactive: 11.9%; and `CCNC(=S)/N=C(\N)N[N+](=O)[O-]`, with inactive: -9.05%; and `O=C(NC1CCS(=O)(=O)C1)NP(=S)(Oc1ccccc1)Oc1ccccc1` (centres undefined), with inactive: 9.09%. With `Cc1ccc(NP(=O)(Oc2cccc(C)c2)Oc2cccc(C)c2)nc1`, the inhibition was inactive: -27.1%.

On to `c1ccc(-c2nn[nH]n2)c(-c2nn[nH]n2)c1`, for which the inhibition is inactive: 5.34%.

For `O=P1(N(CCCl)CCCl)OCCC2CCCCN21` (centres undefined), the inhibition is inactive: -17.3%. As for `Cc1ccc(OP(=O)(Nc2ccccn2)Oc2ccc(C)cc2)cc1`, the inhibition is inactive: -32.3%.

As for `CC(=O)NC(SC(=S)N(CC(C)C)CC(C)C)C(Cl)(Cl)Cl` (centres undefined), the inhibition is inactive: -16.1%. Then `COC(=O)c1cc2c(s1)N=C(c1ccccc1)N(C)P2(=O)N1CCOCC1` (centres undefined), with inactive: -11.4%; and `CCC(=O)N1C2C3N(C(=O)CC)C1C1N(C(=O)CC)C(C(N1C(=O)CC)N3C(=O)CC)N2C(=O)CC`, with inactive: -3.7%. The value for `O=C(OC1CN2CCC1CC2)c1ccccc1` (centres undefined) was inactive: 5.91%; that for `CN(C)C(=O)Oc1noc2ccccc12` was inactive: 17.4%.

As for `O=c1c2cc([N+](=O)[O-])ccc2[nH]c2c([N+](=O)[O-])cc([N+](=O)[O-])cc12`, the inhibition was inactive: -42%.

Take `Cc1ccccc1OP(=O)(Nc1ccccn1)Oc1ccccc1C`: the inhibition is inactive: 2.81%. Consider `CC(NC(=O)COC(=O)C(O)(c1ccccc1)c1ccccc1)c1ccccc1` (centres undefined), for which the inhibition was inactive: -21.4%.
